Activity change, negative = inhibition data for 26 compounds are collected here from PubChem BioAssay AID720542 (National Center for Advancing Translational Sciences (NCATS), 2013).

The list shows a part of the results, in another mix than the full data. Some of these compounds have results that are not shown, active ones among them. Calls of active or inactive are those of the source. Calls come from the whole dose curve; as a rule, active = well fitted inhibition curve with a large enough effect; inconclusive = small, poorly fitted or top-dose-only effect; inactive = no such curve, though single readings can be large or run the other way.

The subject of the experiment is Plasmodium falciparum AMA1 (3D7) - RON2 peptide interaction. Description: qHTS for Inhibitors of AMA1-RON; Towards Development of Antimalarial Drug Lead: Primary Screen.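 Note: 0% = vehicle wells and -100% = peptide control; nearly all actives have a fitted effect of over 45% in size.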 Particulars: AlphaScreen AMA1-biotinylated RON2 peptide binding; at 58.2 µM (top of the series) unless noted. In general terms: qHTS replaces the single test concentration by a dilution series.
For `COc1cc(C(=O)NCC2(N(C)C)CCCCC2)c([N+](=O)[O-])cc1OC`, the activity change, negative = inhibition is inactive: -4.48%.
With `CN(C)C1(CNC(=O)c2ccc(Br)cc2)CCCCC1` the figure was inactive: -12.2%; with `O=C(NCC1(N2CCCCC2)CCCCC1)c1cccc(Cl)c1`, inactive: 2.06%.
With `COc1cccc(C(=O)NCC2(N3CCCCC3)CCCCC2)c1` the figure was inactive: -0.688%; with `COc1ccc(Cl)cc1C(=O)NCC1(N(C)C)CCCCC1`, inactive: -0.0567%; with `O=C(OC1CN2CCC1CC2)C(CO)(c1ccccc1)c1ccccc1` (stereo unspecified), inactive: 4.29%.
In the case of `CN(C)c1cccc(C(=O)NCC2(N(C)C)CCCCC2)c1` it was inactive: 6.62%.
Regarding `CC(C)Oc1ccc(C(=O)NCC2(N(C)C)CCCCC2)cc1`, the activity change, negative = inhibition is inactive: -2.1%.
In the case of `O=C(OCCN1CCCC1)C(O)(c1ccccc1)c1ccccc1` it was inactive: 12.3%.
For the compound `COc1ccc(Br)c(C(=O)NCC2(N3CCCCC3)CCCCC2)c1`, the activity change, negative = inhibition was inactive: -6.19%.
`C=C(C)C#CC(O)(C(=O)OC1CCN(C)CC1)c1ccccc1` (stereo unspecified): the activity change, negative = inhibition was inactive: 0%.
With `CN1[C@@H]2CC[C@H]1CC(OC(=O)C(O)(c1ccccc1)c1ccccc1)C2` (stereo partly specified) the figure was inactive: -3.27%; with `O=C(NCC1(N2CCCCC2)CCCCC1)c1cc([N+](=O)[O-])ccc1Cl`, inactive: -9.24%; with `Cc1ccc(C(=O)NCC2(N3CCCCC3)CCCCC2)cc1`, inactive: 3.23%.
With `CC(C)N1C(=O)CC2(CCN(CCOC(=O)C(O)(c3ccccc3)c3ccccc3)CC2)C1=O` the figure was inactive: 3.91%.
With `CCN(CC)CC(C)C(C)OC(=O)C(O)(c1ccccc1)c1ccccc1` (stereo unspecified) the figure was inactive: 7.05%; with `COc1cc(SC)ccc1C(=O)NCC1(N(C)C)CCCCC1`, inactive: -4.3%; with `Cc1ccccc1C(=O)NCC1(N2CCCCC2)CCCCC1`, inactive: -0.893%.
Consider `CN(C)C1CCCC1OC(=O)C(O)(c1ccccc1)c1ccccc1` (stereo unspecified), for which the activity change, negative = inhibition was inactive: 2.28%.
With `CN(C)c1ccc(C(=O)NCC2(N(C)C)CCCCC2)cc1` the figure was inactive: -1.21%; with `Cc1cc(C(=O)NCC2(N3CCCCC3)CCCCC2)ccc1[N+](=O)[O-]`, inactive: -1.99%; with `CCN1CCCC(OC(=O)C2(O)c3ccccc3C=Cc3ccccc32)C1` (stereo unspecified), inactive: 5.94% [at 2.32 µM].
Consider `O=C(NCC1(N2CCCCC2)CCCCC1)c1cccc(Br)c1`, for which the activity change, negative = inhibition was inactive: -7.86%.
As for `COc1ccc(C(=O)NCC2(N(C)C)CCCCC2)cc1`, the activity change, negative = inhibition was inactive: -10.1%.
For the compound `C=CCN1CCN(CCOC(=O)C(O)(c2ccccc2)c2ccccc2)CC1`, the activity change, negative = inhibition is inactive: -5.45%.
Regarding `O=C(NCC1(N2CCCCC2)CCCCC1)c1cc(F)c(F)cc1Cl`, the activity change, negative = inhibition is inactive: 27.5%.
